Experimental data from US20230121325A1, “FAST DISSOLVING PHARMACEUTICAL COMPOSITIONS” (XSPRAY PHARMA AB, priority 2021, published 2023).

Settings: Dasatinib + Omeprazole vs Dasatinib alone, geometric mean ratio, 90 mg Test Formulation, n = 16

- AUC(0-24 h) (Day 6/Day 1) Ratio: 106.76%
- AUC(0-∞) (Day 6/Day 1) Ratio: 107.53%
- Cmax (Day 6/Day 1) Ratio: 85.67%
SMILES: Cc1nc(Nc2ncc(C(=O)Nc3c(C)cccc3Cl)s2)cc(N2CCN(CCO)CC2)n1 [Dasatinib, dasatinib]
